Amino acid sequences for entries named in this document (tags omitted).
UniProt P09874, whole entry: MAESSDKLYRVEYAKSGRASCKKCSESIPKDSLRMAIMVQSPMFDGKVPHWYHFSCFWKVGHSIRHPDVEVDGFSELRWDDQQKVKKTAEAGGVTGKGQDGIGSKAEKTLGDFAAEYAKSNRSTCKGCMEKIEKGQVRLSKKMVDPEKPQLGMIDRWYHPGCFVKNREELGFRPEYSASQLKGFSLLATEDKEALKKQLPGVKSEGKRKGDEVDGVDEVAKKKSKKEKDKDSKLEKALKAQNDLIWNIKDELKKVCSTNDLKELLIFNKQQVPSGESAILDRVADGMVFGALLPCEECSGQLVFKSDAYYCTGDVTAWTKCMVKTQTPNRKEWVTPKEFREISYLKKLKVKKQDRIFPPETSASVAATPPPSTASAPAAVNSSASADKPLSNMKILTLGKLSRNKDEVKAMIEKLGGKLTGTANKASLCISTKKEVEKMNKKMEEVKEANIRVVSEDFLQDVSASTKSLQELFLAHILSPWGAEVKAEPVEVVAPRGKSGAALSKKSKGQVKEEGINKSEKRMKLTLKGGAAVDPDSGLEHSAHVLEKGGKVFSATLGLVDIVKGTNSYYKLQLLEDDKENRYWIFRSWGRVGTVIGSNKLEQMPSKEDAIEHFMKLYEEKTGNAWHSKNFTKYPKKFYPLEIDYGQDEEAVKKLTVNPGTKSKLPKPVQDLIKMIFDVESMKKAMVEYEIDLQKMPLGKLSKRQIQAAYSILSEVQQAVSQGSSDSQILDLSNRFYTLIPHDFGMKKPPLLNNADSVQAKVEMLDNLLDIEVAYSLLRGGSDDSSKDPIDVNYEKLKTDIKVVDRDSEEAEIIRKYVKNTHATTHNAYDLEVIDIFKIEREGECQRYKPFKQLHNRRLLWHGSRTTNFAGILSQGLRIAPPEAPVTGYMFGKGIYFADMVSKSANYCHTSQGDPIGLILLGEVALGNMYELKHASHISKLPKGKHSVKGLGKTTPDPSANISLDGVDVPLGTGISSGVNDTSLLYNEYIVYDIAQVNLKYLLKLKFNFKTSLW

In US6677333B1, “2H-phthalazin-1-one derivatives and drug containing its derivatives as active ingredient” (Ono Pharmaceutical Co., Ltd., priority 1999, dated 2004):

Target: PARP (Homo sapiens, UniProt P09874)
Assay: Enzyme assay in vitro (PARP inhibitory activity)
Details: PARP (TREVIGEN), activated DNA, 10 minutes reaction, 100% of control = distilled water; example 5 tested as trifluoro acetate; tested form: hydrochloride and methanesulfonate both
Experimental: The below procedure was carried out with 96 well plate. The reaction mixture contained 50 mM Tris/HCl (pH 8.0, WAKO), 10 mM MgCl2, 5 mM dithiothreitol (sigma), and 0.5 mg/mL activated DNA in 80 μL. The 10 μL of test compound was added to the reaction mixture and the reaction was started by addition of 10 μL of […] PARP (TREVIGEN). The reaction was terminated at 10 minutes by addition of 100 μL of 20% trichloroacetic acid. The reaction product was collected on a glass fiber filter (GF/C, PACKARD). The radioactivity was measured by topcount (PACKARD). Inhibitory activity of the compound was represented by 50% inhibitory concentration (IC50) calculated 100% of control (distilled water).

Question: Which IC50 does the source give for `O=C(CCCCN1CCCC1)Nc1cccc(-c2n[nH]c(=O)c3ccccc23)c1` here?
Answer: 0.088 µM
